Earlier results on one substance are cited in US6426317B1, “Stable, high available halogen 1,3,5-triazine-2,4,6-trione compositions having rapid dissolution rates” (Great Lakes Chemical Corporation, priority 1999, dated 2002).

The conditions of data set [1]: in water at 20° C.; cited from earlier work.
For data set [2] the following is noted: NFPA scale from 1 to 4, NFPA 430, 1995 edition; cited from earlier work.

Consider sodium dichloroisocyanurate, for which, in data set [1], the Solubility was 12.5^4 g/100g (%). Further, in data set [2], the “Oxidizer Rating” value is given as 1.
